Target: T1, human SAP (Homo sapiens, UniProt P02743)
T1 construct: from tissue; host or cells: natural human SAP, purified
Test: Biacore kinetics, human SAP captured on immobilised O-phosphoethanolamine
Type: binding
Settings: CM5 chip, calcium; bivalent analyte model; 25° C.; for comparison only, avidity effect
Protocol: O-phosphoethanolamine was immobilised on a Biacore CM5 chip by primary amine coupling in accordance with the manufacturer's instructions. Human SAP was then captured on the surface in the presence of calcium chloride, in order to replicate in the Biacore system in vitro, the precise orientation of SAP molecules bound to amyloid fibrils in vivo. Anti SAP antibodies were then passed over this surface at 256, 64, 16, 4, 1 nM and a binding sensorgrams obtained. Analysis was carried out at 25° C. using 4% BSA, 10 mM Tris, 140 mM NaCl, 2 mM CaCl2, 0.05% surfactant P20, 0.02% Na N3, pH 8.0 as running buffer. […] Data generated were double referenced with a buffer injection over the human SAP surface and analyzed using the bivalent analyte model in the Biacore T100 evaluation software.
Avidity is more likely to have affected antibody dissociation rates, leading to lower calculated KD values. Furthermore, for all the SAP-E antibodies, the dissociation rate (kd) obtained is outside the limit of the Biacore measurement range.

By UniProt entry, the sequences of proteins in these tests, tags left out. Residues count along the entry.
UniProt P02743, 20-223: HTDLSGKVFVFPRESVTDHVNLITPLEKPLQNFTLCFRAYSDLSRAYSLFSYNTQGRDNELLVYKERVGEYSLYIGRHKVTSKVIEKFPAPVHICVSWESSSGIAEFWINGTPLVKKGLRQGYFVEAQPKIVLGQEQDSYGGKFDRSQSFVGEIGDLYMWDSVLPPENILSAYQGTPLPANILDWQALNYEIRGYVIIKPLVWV

Kd: 0.0449 nM
B1: SAP-E chimera: SAP-E chimeric antibody, human IgG1/κ, heavy SEQ ID NO:21, light SEQ ID NO:22 (protein)
chain 1: QASLQQSGTELVRSGASVKMSCKASGFTFATYNMHWIKQTPGQGLEWIGYIYPGDGNANYNQQFKGKATLTADTSSNTAYMQISSLTSEDSAVYFCRDFDYDGGYYFDSWGQGTLVTVSSASTKGPSVFPLAPSSKSTSGGTAALGCLVKDYFPEPVTVSWNSGALTSGVHTFPAVLQSSGSLSSVVTVPSSSLGTQTYICNVNHKPSNTKVDKKVEPKSCDKTHTCPPCPAPELLGGPSVFLFPPKPKDTLMISRTPEVTCVVVDVSHEDPEVKFNWYVDGVEVHNAKTKPREEQYNSYVVSVLTVLHQDWLNGKEYKCKVSNKALPAPIEKTISKAKGQPREPQVYTLPPSRDELTKNQVSLTCLVKGFYPSDIAVEWESNGQPENNYKTTPPVLDSDGSFFKKLTVDKSRWQQGNVFSCSVMHEALHNHYTQKSLSLSPGK
chain 2: DIQMTQSPASLSASVGETVTITCRASENIYSYLAWYQQKQGRSPQLLVHNAKTLAEGVPSRVSGSGSGTHFSLKINGLQPEDFGNYYCQHHYGAPLTFGAGTKLELKRTVAAPSVFIFPPSDEQLKSGTASVVCLLNNFYPREAKVQWKVDNALQSGNSQESVTEQDSKDSTYSLSSTLTLSKADYEKHKVYACEVTHQGLSSPVTKSFNRGEC

From US9434716B2, “Antigen binding proteins” (Glaxo Group Limited, priority 2011, dated 2016)
